{
  "sequences": {"note": "Amino acid sequences for entries named in this document (tags omitted). Residues count along the entry.", "UniProt P17787, 26-502 limits assumed": "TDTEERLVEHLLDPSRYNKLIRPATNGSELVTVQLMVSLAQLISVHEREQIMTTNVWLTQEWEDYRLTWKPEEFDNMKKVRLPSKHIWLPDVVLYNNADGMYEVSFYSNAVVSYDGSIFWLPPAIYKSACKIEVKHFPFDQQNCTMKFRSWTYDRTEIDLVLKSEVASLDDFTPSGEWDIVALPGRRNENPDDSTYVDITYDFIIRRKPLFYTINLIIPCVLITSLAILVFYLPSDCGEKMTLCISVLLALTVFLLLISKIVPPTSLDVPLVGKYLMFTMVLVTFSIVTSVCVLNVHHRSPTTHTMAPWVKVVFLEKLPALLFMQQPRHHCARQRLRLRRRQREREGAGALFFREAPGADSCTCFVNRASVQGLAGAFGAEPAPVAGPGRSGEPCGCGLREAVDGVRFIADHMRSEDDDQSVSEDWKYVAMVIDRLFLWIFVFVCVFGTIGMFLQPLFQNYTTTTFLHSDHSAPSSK", "UniProt P43681, 27-627 limits assumed": "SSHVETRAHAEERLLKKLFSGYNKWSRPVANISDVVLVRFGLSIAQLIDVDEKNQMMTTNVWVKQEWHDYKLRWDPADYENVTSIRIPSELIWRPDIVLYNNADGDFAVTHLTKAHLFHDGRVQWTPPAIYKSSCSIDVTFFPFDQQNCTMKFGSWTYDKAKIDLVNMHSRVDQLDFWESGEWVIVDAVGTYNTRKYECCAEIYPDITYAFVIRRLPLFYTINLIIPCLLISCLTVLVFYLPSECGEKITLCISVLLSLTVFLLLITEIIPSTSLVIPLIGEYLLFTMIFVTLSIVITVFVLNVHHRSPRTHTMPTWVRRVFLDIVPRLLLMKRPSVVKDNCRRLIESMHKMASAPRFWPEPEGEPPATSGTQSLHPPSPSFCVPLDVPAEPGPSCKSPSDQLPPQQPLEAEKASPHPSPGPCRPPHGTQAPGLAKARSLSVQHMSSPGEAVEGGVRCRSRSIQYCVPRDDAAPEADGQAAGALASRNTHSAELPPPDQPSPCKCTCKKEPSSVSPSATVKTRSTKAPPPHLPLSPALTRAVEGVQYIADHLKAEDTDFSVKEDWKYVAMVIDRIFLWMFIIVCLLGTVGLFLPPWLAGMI"},
  "source": "ChEMBL document CHEMBL2176988",
  "about": "(J Med Chem, 2012)",
  "biological_target": "Neuronal acetylcholine receptor; alpha4/beta2 (Homo sapiens, UniProt P17787+P43681)",
  "assay": "Binding affinity to alpha4beta2 nAChR",
  "format": "protein-complex assay",
  "data": [
    {"compound": "CC(=O)C1=CCCC2CCC1N2", "note": "(stereo unspecified)", "values": [
      {"measurement": "Ki", "value": 1.1, "unit": "nM"}
    ]}
  ]
}
